The numbers were not newly measured in paper PMC10494213 (iScience, 2023), which cites them from elsewhere.

The structures appear in SMILES notation.

The conditions of this data set: pH 7.4; ref http://www.chemspider.com/Chemical; cited from earlier work.

Take `NC(=O)N1c2ccccc2C=Cc2ccccc21` [CMZ, Carbamazepine]: the Dow is recorded as 2.77.
